{
  "source": "paper PMC7796559",
  "about": "“Connecting the conformational behavior of cyclic octadepsipeptides with their ionophoric property and membrane permeability” (Organic & biomolecular chemistry, 2020)",
  "origin": "cited, not measured here",
  "test_system": "Caco-2",
  "set-up": "method as in PMID 26067057, PMID 32121188",
  "settings": "cited from earlier work",
  "data": [
    {"substance": "beauvericin [compound 6]", "values": [
      {"measurement": "Permeability in Caco-2 permeability assay", "value": 580, "unit": "×10⁻⁶ cm/s"}
    ]}
  ]
}
